These results are taken from ChEMBL document CHEMBL1153892 (Bioorg Med Chem, 2009).

The IC50 is the midpoint of a concentration-inhibition curve. A higher IC50 goes with weaker potency.

In the assay the test system is A2780. Briefly: Antiproliferative activity against human A2780 cells after 2 days by alamar-blue assay. The settings on record: A2780, 48 h. In kind it is functional, cell-based. (The colour change of resazurin is a common sign of viable cells or microbes.)
`O=C1c2cc3c(cc2C(=O)C2OC12)CCCC3` (stereo not drawn): the 50% inhibitory concentration (IC50) stood at 1.4 µM.
Compound `O=C1C2=C(C(=O)c3cc4c(cc31)CCCC4)S(=O)(=O)CCN2` displayed an IC50 of 6.9 µM.
`O=C1C=CC(=O)c2cc3c(cc21)CCCC3` registered an IC50 of 0.75 µM.
